For one data set, the system named is K562. Put plainly: Inhibition of cell proliferation, CTG method, 72 hours. Conditions: K562 cells. The format is cell-based. On the procedure:
(§1) Cells are cultured under a complete culture medium; when cells are attached to the wall, drug of different concentrations is added in each tumor cell line for treatment, and a positive control, a blank control and a solvent control are set. Cells are incubated for 72 hours and then CTG method is used for detection.

The test system of another data set is KU812. The data set is described as above. Conditions: KU812 cells. The data set is classed as cell-based. On the procedure:
as §1

The subject of a further data set is PC-3. The data set is described as above. The conditions noted are these: PC-3 cells. The format is cell-based. On the procedure: as §1
The next data set relates to SUP-B15. The data set is described as above. The data set is classed as cell-based. Conditions: SUP-B15 cells. The method, then:
as §1

The subject of the next data set is Caco-2 cell monolayer. Put plainly: Caco-2 cell monolayer transmembrane transport (unidirectional and bidirectional).

With `COCCOCCOCCOCCOCCOCCN1CCN(c2cc(Nc3ncc(C(=O)Nc4c(C)cccc4Cl)s3)nc(C)n2)CC1` [DSTN-51, Methoxyl Pentaethylene Glycol-dasatinib], the IC50 is 2.22 nM in the data set on K562, 0.5 nM in the data set with KU812, 83100 nM in the data set on PC-3 (“—” indicates that IC50 value cannot be calculated) and 170 nM with SUP-B15. Further, the Maximum inhibition rate in the data set on K562 stood at 79.04%; in the data set with KU812, 96.47%; in the data set on PC-3, 56.67%; in the data set on SUP-B15 it was 91.39%. Further, in the data set on Caco-2 cell monolayer (Caco-2, A→B, 90 min incubation), the “Papp (*10^−6)A→B” value is given as 8.55 ± 2.29 *10^−6 cm/s. Besides, the “Papp (*10^−6)B→A” value in the data set with Caco-2 cell monolayer (Caco-2, B→A, 90 min incubation) is listed as 23.91 ± 1.24 *10^−6 cm/s. Moreover, in the data set on Caco-2 cell monolayer (Caco-2 efflux ratio, >2 suggests efflux transporter), the “Papp (B→A)/Papp (A→B)” value was found to be 2.80.
